Experimental data taken from patent publication US10941187B2 (The United States of America, as represented by the …, priority 2001, dated 2021).
“Also recorded” adds a separate entry of the source.

System: RIN 1048-36 cells
Test: Insulin secretion in vitro in RIN 1048-36 cells
Format: cell-based, rat
Details: peptide 1×10−8 M, 5 mM glucose, 1 h, compared with GLP-1 and exendin-4

## CC[C@H](C)[C@H](NC(=O)[C@H](Cc1ccccc1)NC(=O)[C@H](CCC(=O)O)NC(=O)[C@H](CCCCN)NC(=O)[C@H](C)NC(=O)[C@H](C)NC(=O)[C@H](CCC(N)=O)NC(=O)CNC(=O)[C@H](CCC(=O)O)NC(=O)[C@H](CC(C)C)NC(=O)[C@H](Cc1ccc(O)cc1)NC(=O)[C@H](CO)NC(=O)[C@H](CO)NC(=O)[C@@H](NC(=O)[C@H](CC(=O)O)NC(=O)[C@H](CO)NC(=O)[C@@H](NC(=O)[C@H](Cc1ccccc1)NC(=O)[C@@H](NC(=O)CNC(=O)[C@H](CCC(=O)O)NC(=O)CCCCCNC(=O)CCCCCNC(=O)CCCCCNC(=O)CCCCCNC(=O)[C@H](C)NC(=O)[C@@H](N)Cc1c[nH]cn1)[C@@H](C)O)[C@@H](C)O)C(C)C)C(=O)N[C@@H](C)C(=O)N[C@@H](Cc1c[nH]c2ccccc12)C(=O)N[C@@H](CC(C)C)C(=O)N[C@H](C(=O)N[C@@H](CCCCN)C(=O)NCC(=O)N[C@@H](CCCNC(=N)N)C(N)=O)C(C)C [GLP-1 (Aha^9)4, GLP-1 (6-aminohexanoic acid^9)4]
Listed as peptide 25
  induction of insulin secretion: did not induce insulin secretion; also recorded: abrogated the peptides' ability to induce insulin secretion

## CC[C@H](C)[C@H](NC(=O)[C@H](Cc1ccccc1)NC(=O)[C@H](CCC(=O)O)NC(=O)[C@H](CCCCN)NC(=O)[C@H](C)NC(=O)[C@H](C)NC(=O)[C@H](CCC(N)=O)NC(=O)CNC(=O)[C@H](CCC(=O)O)NC(=O)[C@H](CC(C)C)NC(=O)[C@H](Cc1ccc(O)cc1)NC(=O)[C@H](CO)NC(=O)[C@H](CO)NC(=O)[C@@H](NC(=O)[C@H](CC(=O)O)NC(=O)[C@H](CO)NC(=O)[C@@H](NC(=O)[C@H](Cc1ccccc1)NC(=O)[C@@H](NC(=O)CNC(=O)[C@H](CCC(=O)O)NC(=O)CCCCCNC(=O)CCCCCNC(=O)CCCCCNC(=O)CCCCCNC(=O)CCCCCNC(=O)CCCCCNC(=O)CCCCCNC(=O)CCCCCNC(=O)[C@H](C)NC(=O)[C@@H](N)Cc1c[nH]cn1)[C@@H](C)O)[C@@H](C)O)C(C)C)C(=O)N[C@@H](C)C(=O)N[C@@H](Cc1c[nH]c2ccccc12)C(=O)N[C@@H](CC(C)C)C(=O)N[C@H](C(=O)N[C@@H](CCCCN)C(=O)NCC(=O)N[C@@H](CCCNC(=N)N)C(N)=O)C(C)C [GLP-1 (Aha^9)8, GLP-1 (6-aminohexanoic acid^9)8]
Listed as peptide 26
  induction of insulin secretion: did not induce insulin secretion; also recorded: abrogated the peptides' ability to induce insulin secretion

## CC[C@H](C)[C@H](NC(=O)[C@H](Cc1ccccc1)NC(=O)[C@H](CCC(=O)O)NC(=O)[C@H](CCCCN)NC(=O)[C@H](C)NC(=O)[C@H](C)NC(=O)[C@H](CCC(N)=O)NC(=O)CNC(=O)[C@H](CCC(=O)O)NC(=O)[C@H](CC(C)C)NC(=O)[C@H](Cc1ccc(O)cc1)NC(=O)[C@H](CO)NC(=O)[C@H](CO)NC(=O)[C@@H](NC(=O)[C@H](CC(=O)O)NC(=O)[C@H](CO)NC(=O)[C@@H](NC(=O)[C@H](Cc1ccccc1)NC(=O)[C@@H](NC(=O)CNC(=O)[C@H](CCC(=O)O)NC(=O)[C@H](C)NC(=O)[C@@H](N)Cc1c[nH]cn1)[C@@H](C)O)[C@@H](C)O)C(C)C)C(=O)N[C@@H](C)C(=O)N[C@@H](Cc1c[nH]c2ccccc12)C(=O)N[C@@H](CC(C)C)C(=O)N[C@H](C(=O)N[C@@H](CCCCN)C(=O)NCC(=O)N[C@@H](CCCNC(=N)N)C(=O)N1CCC[C@H]1C(=O)N[C@@H](CO)C(=O)N[C@@H](CO)C(=O)NCC(=O)N[C@@H](C)C(=O)N1CCC[C@H]1C(=O)N1CCC[C@H]1C(=O)N1CCC[C@H]1C(=O)N[C@@H](CO)C(N)=O)C(C)C [peptide 12]
  induction of insulin secretion: substantially greater effect on insulin secretion than either GLP-1 or exendin-4; also recorded: remains active and actually has an activity that exceeds that of exendin-4
